Assay: Drug-drug interactions: effect on concentration on co-administration (Table 1)
[1] = concomitant Clarithromycin, Erythromycin, Telithromycin
[2] = concomitant H2-receptor antagonists: Famotidine, Cimetidine, Nizatidine, Ranitidine
[3] = concomitant antacids (aluminum, magnesium hydroxide, calcium carbonate), cation-containing antacids or laxatives, sucralfate, buffered medications
[4] = concomitant protease inhibitor Tipranavir/ritonavir
[5] = concomitant use of rifabutin and a composition of the invention

Row | Structure (SMILES) | Effect on Concentration [1] | Effect on Concentration [2] | Effect on Concentration (concomitant NNRTIs: Delavirdine, Efavirenz, Etravirine, Nevirapine) | Effect on Concentration [3] | Effect on Concentration (concomitant oral calcium and iron supplements (non-antacid)) | Effect on Concentration [4] | Effect on Concentration [5]
1 | O=C(NCc1c(F)cc(F)cc1F)c1cn2c(c(O)c1=O)C(=O)N1[C@H]3CC[C@H](C3)O[C@@H]1C2 [Bictegravir, (2R,5S,13aR)-8-hidroxi-7,9-dioxo-N-[(2,4,6-trifluorofenil)metil]-2,3,4,5,7,9,13,13a-octahidro-2,5-metanopirido [1′,2′:4,5]pirazino[2,1-b][1,3]oxazepina-10-carboxamida] | ↔Bictegravir | ↔Bictegravir | ↓Bictegravir | ↓Bictegravir | ↓Bictegravir | ↓Bictegravir | ↔Bictegravir
2 | Cc1cc(/C=C/C#N)cc(C)c1Nc1ccnc(Nc2ccc(C#N)cc2)n1 [Rilpivirine, 4-[[4-[[4-[(E)-2-cyanoethenyl]-2,6-dimethylphenyl]amino]-2-pyrimidinyl]amino]benzonitrile] | ↑Rilpivirine | ↓Rilpivirine | – | ↓Rilpivirine | – | ↑Rilpivirine | ↓Rilpivirine

— patent US10758531B2, “Regimens and compositions for treating HIV infections and AIDS” (ViiV Healthcare Company, priority 2016, dated 2020)
